Results published in US20250195530A1, “POLQ INHIBITORS” (ASTRAZENECA AB, priority 2022, published 2025).

Chains of the proteins cited; added tags and fusions are not shown. Residues count along the entry.
UniProt O75417, 1780-2590: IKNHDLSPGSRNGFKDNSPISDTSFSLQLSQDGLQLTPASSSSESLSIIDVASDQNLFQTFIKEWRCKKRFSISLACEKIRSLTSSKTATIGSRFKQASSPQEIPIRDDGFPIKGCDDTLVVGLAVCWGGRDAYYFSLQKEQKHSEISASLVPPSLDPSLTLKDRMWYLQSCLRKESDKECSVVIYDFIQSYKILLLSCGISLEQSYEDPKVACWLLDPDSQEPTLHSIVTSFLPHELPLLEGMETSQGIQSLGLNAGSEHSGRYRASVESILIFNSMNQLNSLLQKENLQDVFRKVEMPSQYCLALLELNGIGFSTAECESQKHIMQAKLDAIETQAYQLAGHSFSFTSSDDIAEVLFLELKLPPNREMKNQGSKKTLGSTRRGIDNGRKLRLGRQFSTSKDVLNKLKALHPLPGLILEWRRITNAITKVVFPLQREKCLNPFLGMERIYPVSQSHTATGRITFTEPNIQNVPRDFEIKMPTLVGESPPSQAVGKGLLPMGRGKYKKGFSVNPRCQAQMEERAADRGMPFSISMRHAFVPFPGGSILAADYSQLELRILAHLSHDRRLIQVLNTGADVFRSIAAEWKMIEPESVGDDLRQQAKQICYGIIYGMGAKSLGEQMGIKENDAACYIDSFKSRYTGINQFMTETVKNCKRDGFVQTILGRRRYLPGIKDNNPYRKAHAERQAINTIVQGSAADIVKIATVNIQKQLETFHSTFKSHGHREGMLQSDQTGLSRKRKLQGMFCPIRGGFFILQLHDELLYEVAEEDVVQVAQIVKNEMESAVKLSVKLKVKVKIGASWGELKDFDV

Target: isolated polymerase domain (I1780-V2590) of DNA polymerase theta (Polθ) (Homo sapiens (Human), UniProt O75417)
Assay: biochemical

Row | SMILES | IC50 [nM]
1 | CC(CCOc1ccc(-c2nc3c(OC4(C)CC4)ncnc3n2Cc2cc(F)cc(F)c2)c(Cl)c1)C(=O)O (racemic) [Example T260, 4-(3-chloro-4-(9-(3,5-difluorobenzyl)-6-(1-methylcyclopropoxy)-9H-purin-8-yl)phenoxy)-2-methylbutanoic acid] | 6.31
2 | Cc1cnc(Cn2c(-c3ccc(OCCN4CCNC[C@@H]4C)cc3Cl)nc3c(OC4(C)CC4)ncnc32)s1 [Example T393, (S)-2-((8-(2-chloro-4-(2-(2-methylpiperazin-1-yl)ethoxy)phenyl)-6-(1-methylcyclopropoxy)-9H-purin-9-yl)methyl)-5-methylthiazole] | 5.01
3 | Cc1cnc(Cn2c(-c3ccc(OCCCN4CC[C@@H](O)C4)cc3Cl)nc3c(OC4(C)CC4)ncnc32)s1 [Example T391, (R)-1-(3-(3-chloro-4-(6-(1-methylcyclopropoxy)-9-((5-methylthiazol-2-yl)methyl)-9H-purin-8-yl)phenoxy)propyl)pyrrolidin-3-ol] | 5.01
4 | CC1(Oc2ncnc3c2nc(-c2ccc(OCCN4CCNCC4)cc2F)n3Cc2cc(Cl)ccn2)CC1 [Example T349, 9-((4-chloropyridin-2-yl)methyl)-8-(2-fluoro-4-(2-(piperazin-1-yl)ethoxy)phenyl)-6-(1-methylcyclopropoxy)-9H-purine] | 12.6
5 | Cc1ccnc(Cn2c(-c3ccc(OCC(=O)N4CCC4)cc3Cl)nc3c(OC4(C)CC4)ncnc32)c1 [Example T312, 1-(azetidin-1-yl)-2-(3-chloro-4-(6-(1-methylcyclopropoxy)-9-((4-methylpyridin-2-yl)methyl)-9H-purin-8-yl)phenoxy)ethan-1-one] | 6.31
6 | CC[C@@H](O)CNC(=O)COc1ccc(-c2nc3c(OC4(C)CC4)ncnc3n2Cc2cc(C)ccn2)c(Cl)c1 [Example T520, (R)-2-(3-chloro-4-(6-(1-methylcyclopropoxy)-9-((4-methylpyridin-2-yl)methyl)-9H-purin-8-yl)phenoxy)-N-(2-hydroxybutyl)acetamide] | 5.01
7 | Cc1cc(OCCN2CCNCC2)ccc1-c1nc2c(OC(C)C)ncnc2n1Cc1ccccc1 [Example B2, 9-benzyl-6-isopropoxy-8-(2-methyl-4-(2-(piperazin-1-yl)ethoxy)phenyl)-9H-purine] | 2
8 | COc1ccc(Cl)cc1Cn1c(-c2cccc(CCCC(C)C(=O)O)c2Cl)nc2c(OC3(C)CC3)ncnc21 (racemic) [Example U55, 5-(2-chloro-3-(9-(5-chloro-2-methoxybenzyl)-6-(1-methylcyclopropoxy)-9H-purin-8-yl)phenyl)-2-methylpentanoic acid] | 6.31
9 | Cc1ccnc(Cn2c(-c3ccc(NCCN(C)C)cc3Cl)nc3c(OC4(C)CC4)ncnc32)c1 [Example T247, N1-(3-chloro-4-(6-(1-methylcyclopropoxy)-9-((4-methylpyridin-2-yl)methyl)-9H-purin-8-yl)phenyl)-N2,N2-dimethylethane-1,2-diamine] | 6.31
10 | CC(CCOc1ccc(-c2nc3c(OC4(C)CC4)ncnc3n2Cc2c(F)c(F)c(F)c(F)c2F)c(Cl)c1)C(=O)O (racemic) [Example T251, 4-(3-chloro-4-(6-(1-methylcyclopropoxy)-9-((perfluorophenyl)methyl)-9H-purin-8-yl)phenoxy)-2-methylbutanoic acid] | 39.8
11 | Cc1cnc(Cn2c(-c3ccc(OCCCN4CC(O)C4)cc3Cl)nc3c(OC4(C)CC4)ncnc32)s1 [Example T244, 1-(3-(3-chloro-4-(6-(1-methylcyclopropoxy)-9-((5-methylthiazol-2-yl)methyl)-9H-purin-8-yl)phenoxy)propyl)azetidin-3-ol] | 5.01
12 | CC1(Oc2ncnc3c2nc(-c2ccc(CC(N)=O)cc2Cl)n3Cc2cccc(Cl)c2)CC1 [Example T45, 2-(3-chloro-4-(9-(3-chlorobenzyl)-6-(1-methylcyclopropoxy)-9H-purin-8-yl)phenyl)acetamide] | 5.01
